Molecular target: Metabotropic glutamate receptor 5 (Rattus norvegicus) (UniProt P31424)
Assay: Positive allosteric modulator activity at rat mGluR5 receptor expressed in HEK293 cells assessed as potentiation of glutamate-induced response at 30 uM relative to glutamate
Type: cell-based
Method in brief: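 In mGluR5-expressing HEK293A cells in the calcium mobilization assay, response amplitude with test compound present is expressed as a percentage of the maximal response to glutamate. Values are the average of n≥3.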

Chains of the proteins cited; added tags and fusions are not shown.
UniProt P31424, whole entry, looked up: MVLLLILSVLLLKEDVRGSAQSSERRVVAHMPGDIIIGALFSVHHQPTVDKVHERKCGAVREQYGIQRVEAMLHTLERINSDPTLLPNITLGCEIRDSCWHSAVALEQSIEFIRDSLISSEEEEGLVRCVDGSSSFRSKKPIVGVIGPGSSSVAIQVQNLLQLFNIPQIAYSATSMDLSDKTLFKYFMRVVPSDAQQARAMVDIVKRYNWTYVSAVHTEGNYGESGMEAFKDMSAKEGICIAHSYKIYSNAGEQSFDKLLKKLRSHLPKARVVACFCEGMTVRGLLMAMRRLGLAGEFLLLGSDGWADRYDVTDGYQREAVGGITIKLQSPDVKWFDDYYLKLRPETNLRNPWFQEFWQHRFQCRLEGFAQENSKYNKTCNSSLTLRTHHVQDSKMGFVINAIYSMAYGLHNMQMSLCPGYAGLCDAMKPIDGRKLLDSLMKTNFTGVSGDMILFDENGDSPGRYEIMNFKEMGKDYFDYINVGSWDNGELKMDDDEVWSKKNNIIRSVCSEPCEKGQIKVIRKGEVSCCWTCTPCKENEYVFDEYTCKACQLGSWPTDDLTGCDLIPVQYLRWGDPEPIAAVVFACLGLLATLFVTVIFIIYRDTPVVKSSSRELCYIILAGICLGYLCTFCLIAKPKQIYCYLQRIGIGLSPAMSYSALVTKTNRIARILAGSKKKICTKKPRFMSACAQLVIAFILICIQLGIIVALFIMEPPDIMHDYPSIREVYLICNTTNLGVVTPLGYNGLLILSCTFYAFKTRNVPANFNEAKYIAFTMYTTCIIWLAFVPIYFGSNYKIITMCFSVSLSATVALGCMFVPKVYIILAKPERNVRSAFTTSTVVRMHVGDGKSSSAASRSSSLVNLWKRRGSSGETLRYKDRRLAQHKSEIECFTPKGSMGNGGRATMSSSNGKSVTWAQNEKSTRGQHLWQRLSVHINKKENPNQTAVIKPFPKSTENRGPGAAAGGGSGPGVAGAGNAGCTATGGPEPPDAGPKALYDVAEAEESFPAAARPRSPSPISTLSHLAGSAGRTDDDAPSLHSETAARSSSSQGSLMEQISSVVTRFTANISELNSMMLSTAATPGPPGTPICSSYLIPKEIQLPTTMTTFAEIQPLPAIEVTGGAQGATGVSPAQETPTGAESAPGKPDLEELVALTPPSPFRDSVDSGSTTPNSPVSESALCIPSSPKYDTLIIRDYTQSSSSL

## Fc1ccc2ncnc(Nc3ccc(F)c(Cl)c3)c2c1
  Activity: 34%
